Test results from PMC11079024, “Identification of a family of species-selective complex I inhibitors as potential anthelmintics” (Nature Communications, 2024).

Sequences of proteins named here, by UniProt entry; tags and fusion partners are left off. A change or cut given only in a name is not applied to a line headed by its entry. Residues count along the entry.
UniProt P03887, whole entry: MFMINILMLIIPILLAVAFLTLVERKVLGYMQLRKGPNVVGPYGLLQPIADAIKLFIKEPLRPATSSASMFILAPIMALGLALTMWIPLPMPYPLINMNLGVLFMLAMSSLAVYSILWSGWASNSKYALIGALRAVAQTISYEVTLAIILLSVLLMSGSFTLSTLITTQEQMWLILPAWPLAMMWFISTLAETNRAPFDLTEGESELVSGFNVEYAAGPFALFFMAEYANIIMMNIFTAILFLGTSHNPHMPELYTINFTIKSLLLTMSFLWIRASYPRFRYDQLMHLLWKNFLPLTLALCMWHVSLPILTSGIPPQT
UniProt P17694, 34-463: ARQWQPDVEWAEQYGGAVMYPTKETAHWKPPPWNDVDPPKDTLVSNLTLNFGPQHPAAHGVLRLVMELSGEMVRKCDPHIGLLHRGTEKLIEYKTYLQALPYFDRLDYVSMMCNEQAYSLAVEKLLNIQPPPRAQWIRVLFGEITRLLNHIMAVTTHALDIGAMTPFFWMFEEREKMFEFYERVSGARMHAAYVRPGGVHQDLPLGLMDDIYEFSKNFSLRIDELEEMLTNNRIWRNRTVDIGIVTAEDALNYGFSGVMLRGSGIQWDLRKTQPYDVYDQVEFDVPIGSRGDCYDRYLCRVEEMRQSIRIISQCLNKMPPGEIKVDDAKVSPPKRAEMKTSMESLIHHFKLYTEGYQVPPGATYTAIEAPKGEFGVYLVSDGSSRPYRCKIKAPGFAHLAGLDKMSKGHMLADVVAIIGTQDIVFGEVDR
UniProt P42026, 38-216: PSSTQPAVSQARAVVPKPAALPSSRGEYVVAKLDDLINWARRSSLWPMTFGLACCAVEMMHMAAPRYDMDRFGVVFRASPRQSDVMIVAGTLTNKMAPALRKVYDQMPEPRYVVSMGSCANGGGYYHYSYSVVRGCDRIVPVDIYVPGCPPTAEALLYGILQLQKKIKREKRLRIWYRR
UniProt P24887: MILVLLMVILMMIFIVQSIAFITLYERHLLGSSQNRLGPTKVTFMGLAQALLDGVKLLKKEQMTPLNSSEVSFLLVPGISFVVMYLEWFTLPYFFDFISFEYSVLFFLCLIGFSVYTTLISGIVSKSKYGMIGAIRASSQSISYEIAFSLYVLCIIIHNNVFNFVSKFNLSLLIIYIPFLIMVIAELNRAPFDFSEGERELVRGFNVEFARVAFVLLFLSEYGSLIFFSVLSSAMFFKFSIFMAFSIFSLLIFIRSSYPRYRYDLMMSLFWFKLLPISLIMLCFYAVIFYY
UniProt Q93873, 31-482: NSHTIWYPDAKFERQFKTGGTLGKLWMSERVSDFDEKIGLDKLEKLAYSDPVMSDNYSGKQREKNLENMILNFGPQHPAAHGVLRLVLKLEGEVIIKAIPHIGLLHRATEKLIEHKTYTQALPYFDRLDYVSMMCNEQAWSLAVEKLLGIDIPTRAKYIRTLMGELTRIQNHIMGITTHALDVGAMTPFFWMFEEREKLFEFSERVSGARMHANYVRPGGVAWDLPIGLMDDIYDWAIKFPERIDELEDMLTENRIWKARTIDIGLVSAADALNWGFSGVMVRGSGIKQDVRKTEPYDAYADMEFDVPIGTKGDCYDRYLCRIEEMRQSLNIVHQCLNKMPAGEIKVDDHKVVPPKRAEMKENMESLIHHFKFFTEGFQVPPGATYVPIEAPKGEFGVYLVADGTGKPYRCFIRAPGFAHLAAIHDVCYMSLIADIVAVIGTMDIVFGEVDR
UniProt Q94360, 17-199: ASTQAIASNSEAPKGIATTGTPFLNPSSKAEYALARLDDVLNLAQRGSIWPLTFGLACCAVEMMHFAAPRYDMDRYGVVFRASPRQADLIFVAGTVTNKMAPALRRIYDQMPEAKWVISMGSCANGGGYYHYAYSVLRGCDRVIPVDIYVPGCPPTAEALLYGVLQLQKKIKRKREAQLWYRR

What was measured:
L1 C. briggsae (AF16) = experiment: Liquid development and viability assay, C. briggsae; type: cell-based, Caenorhabditis briggsae; settings: liquid growth and development assay, 1 = like DMSO control, 0 = death
L1 P. pacificus (PS312) = experiment: Liquid development and viability assay, P. pacificus; type: cell-based, Pristionchus pacificus; settings: liquid growth and development assay, 1 = like DMSO control, 0 = death
[1] = target: B. taurus (heart) complex I (Bos taurus, UniProt P03887+P17694+P42026); type: biochemical; settings: heart mitochondria
in vitro = settings: human, HEK293 cells (Flp-In-293)
[2] = target: C. elegans (N2) complex I (NADH:ubiquinone oxidoreductase) (Caenorhabditis elegans, UniProt P24887+Q93873+Q94360); experiment: biochemical; type: biochemical; settings: Dose 37.5 µM; read-out: C. elegans mitochondrial complex I activity

Cc1ccccc1OCCCCn1cnc2ccccc21 [CB7732524]
viability score (0-1) relative to DMSO controls (L1 C. briggsae (AF16); 2 µM): 1.000 | viability score (0-1) relative to DMSO controls (L1 C. briggsae (AF16); 3.9 µM): 1.000 | viability score (0-1) relative to DMSO controls (L1 C. briggsae (AF16); 7.8 µM): 1.000 | viability score (0-1) relative to DMSO controls (L1 C. briggsae (AF16); 15.6 µM): 1.000 | viability score (0-1) relative to DMSO controls (L1 C. briggsae (AF16); 31.3 µM): 0.799 | viability score (0-1) relative to DMSO controls (L1 C. briggsae (AF16); 62.5 µM): 0.033 | viability score (0-1) relative to DMSO controls (L1 C. briggsae (AF16); 125 µM): 0.011 | viability score (0-1) relative to DMSO controls (L1 C. briggsae (AF16); 250 µM): 0.0064 | viability score (0-1) relative to DMSO controls (L1 P. pacificus (PS312); 2 µM): 1.000 | viability score (0-1) relative to DMSO controls (L1 P. pacificus (PS312); 3.9 µM): 1.000 | viability score (0-1) relative to DMSO controls (L1 P. pacificus (PS312); 7.8 µM): 1.000 | viability score (0-1) relative to DMSO controls (L1 P. pacificus (PS312); 15.6 µM): 1.000 | viability score (0-1) relative to DMSO controls (L1 P. pacificus (PS312); 31.3 µM): 0.022 | viability score (0-1) relative to DMSO controls (L1 P. pacificus (PS312); 62.5 µM): 0.013 | viability score (0-1) relative to DMSO controls (L1 P. pacificus (PS312); 125 µM): 0.018 | viability score (0-1) relative to DMSO controls (L1 P. pacificus (PS312); 250 µM): 0.015

Brc1ccccc1OCCCCn1cnc2ccccc21 [Compound 7924576]
B. taurus: C. elegans IC50 Fold Change (Complex I IC50 ~Fold Change) [1]: 2.65 | Complex I IC50 ~Fold Change [1]: 2.65 | IC50 Fold change [1]: 2.65 | Relative Motility (L1 wild-type C. elegans; 50 μM, […], worm motility 3 hours after the removal of KCN (endpoint), relative to DMSO controls, single biological replicate): 0.075 | C. elegans KCN Survival (L1 wild-type C. elegans; Dose 0.2 µM, mean of at least three biological replicates): 0.973 | viability at 2 days, 12.5 µM (in vitro): 97.3% | activity at 37.5 µM [2]: 2.65%
